# Only a part is listed here, and it is no random draw. Active and inactive are the calls of the source. Rule as the data show it: active = inhibition above about 45% (passing the limit was not always enough); inconclusive = no clear call, values can overlap the other calls.
# The chains behind the UniProt entries cited, without tags or fusion partners.
# UniProt P61088, whole entry, looked up: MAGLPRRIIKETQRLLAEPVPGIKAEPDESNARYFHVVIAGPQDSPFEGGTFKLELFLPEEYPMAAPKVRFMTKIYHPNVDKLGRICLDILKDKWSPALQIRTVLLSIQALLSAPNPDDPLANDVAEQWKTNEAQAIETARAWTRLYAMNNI
# Molecular target: Ubiquitin-conjugating enzyme E2 N (Homo sapiens) (UniProt P61088)
# Test: blockers of UBC13 ubiquitin chain synthesis – biochemical, TR-FRET, uHTS, primary screen (AID 485273)
# Conditions: UBC13 polyubiquitin chain formation, at 20 µM, active compounds read high
row,SMILES,inhibition
1,COc1cc(OC)cc(C(=O)NCC2(N3CCOCC3)CCCCC2)c1,inactive: -4.6%
2,COc1cccc(C(=O)N(c2cc(C)cc(C)c2)C2CCN(C(=O)OC(C)(C)C)CC2)c1,inactive: -2.8%
3,CCC(CO)(C(=O)OC1CN2CCC1CC2)c1ccccc1 (configuration not stated),inactive: -0.8%
4,CN1CCC(Nc2ccc(Cl)cc2)CC1,inactive: 2.3%
5,CCCOc1ccc(C)cc1CN(CCCl)CCCl,inactive: 20.4%
6,CCOc1ncccc1C(=O)NCC1(N2CCOCC2)CCCCC1,inactive: -7.6%
7,CN1CCC(Nc2ccc(F)c(Cl)c2)CC1,inactive: -2.4%
8,CC(C)(C)OC(=O)N1CCC(Nc2ccccc2)CC1,inactive: 4.1%
9,O=C(O)C1(Nc2ccccc2)CCN(Cc2ccccc2)CC1,inactive: -5.4%
10,CCCOc1ccc(C(=O)NCC2(N(C)C)CCCCC2)cc1,inactive: 5.7%
11,CCN1CCC(Nc2cccc(F)c2)CC1,inactive: 6.6%
12,O=C(NCC1(N2CCCCC2)CCCCC1)c1ccco1,inactive: -4.8%
13,CN(C)c1ccc(C(=O)NCC2(N3CCCCC3)CCCCC2)cc1,inactive: 2.6%
14,COc1cc(OC)cc(C(=O)NCC2(N3CCCCC3)CCCCC2)c1,inactive: 4.1%
15,Cc1ccc(C(=O)NCC2(N3CCCCC3)CCCCC2)o1,inactive: -9.3%
16,Fc1ccccc1NC1CCN(Cc2ccccc2)CC1,inactive: -3.9%
17,CN(C)C1(CNC(=O)c2cccc(C#N)c2)CCCCC1,inactive: -5.4%
18,c1ccc(CN2CCC(Nc3ccccc3)CC2)cc1,inactive: -5.1%
19,CCCN1CCC(Nc2cc(OC)cc(OC)c2)CC1,inactive: -29.4%
20,N#Cc1ccc(C(=O)NCC2(N3CCCCC3)CCCCC2)cc1,inactive: 0.6%
21,CC(C)(C)OC(=O)N1CCC(N(C(=O)c2ccccc2)c2ccc(Cl)cc2)CC1,inactive: 9.8%
22,CCOC(=O)N1CCC(Nc2ccc(C)cc2)CC1,inactive: 4.8%
23,N/C(=N\O)c1c(N)no[n+]1[O-],inactive: -3.6%

row,SMILES,inhibition
1,O=C(OC1CN2CCC1CC2)C1c2ccccc2C=Cc2ccccc21 (configuration not stated),inactive: 3.3%
2,CCc1cc(C(=O)NCC2(N3CCCCC3)CCCCC2)sc1C,inactive: 1.5%
3,COc1cc(C(=O)NCC2(N3CCOCC3)CCCCC2)cc(OC)c1C,inactive: 9.7%
4,O=C(NCC1(N2CCOCC2)CCCCC1)c1cc(Br)ccc1Cl,inactive: -8.3%
5,COc1ccc(C(=O)NCC2(N3CCOCC3)CCCCC2)cc1OC,inactive: 8.3%
6,O=C(NCC1(N2CCCCC2)CCCCC1)c1cncc(Br)c1,inactive: 3.7%
7,CN1CCC(Nc2cccc(F)c2)CC1,inactive: 16%
8,CC(C)c1ccc(NC2CCN(C(=O)OC(C)(C)C)CC2)cc1,inactive: 4.1%
9,COc1ccc(CN(CCCl)CCCl)cc1Cl,inactive: 18%
10,CN(C)c1cccc(C(=O)NCC2(N3CCCCC3)CCCCC2)c1,inactive: 4.2%
11,COc1cc(OC)c(C(=O)NCC2(N(C)C)CCCCC2)cc1OC,inactive: 1%
12,O=C(NCC1(N2CCOCC2)CCCCC1)c1cc(F)c(F)cc1Cl,inactive: -1.7%
13,O=C(NCC1(N2CCCCC2)CCCCC1)c1cccc(C(F)(F)F)c1,inactive: 7.5%
14,COc1cc(C(=O)NCC2(N3CCCCC3)CCCCC2)ccc1OC(F)F,inactive: 4.8%
15,O=C(NCC1(N2CCOCC2)CCCCC1)c1cc(=O)[nH]c2ccccc12,inactive: -12.4%
16,CN1CCN(CCOC(=O)C(O)(c2ccccc2)c2ccccc2)CC1,inactive: 7.3%
17,CC(C)c1ccc(C(=O)NCC2(N3CCOCC3)CCCCC2)cc1,inactive: -14%
18,COc1ccc(NC2CCN(C(=O)OC(C)(C)C)CC2)cc1,inactive: -4.7%
19,O=C(NCC1(N2CCCCC2)CCCCC1)c1ccc(OC(F)F)cc1,inactive: -5.2%
20,CCN1CCC(Nc2ccc(Cl)cc2)CC1,inactive: 2.3%
21,N#CC1(Nc2ccccc2)CCN(CCc2ccccc2)CC1,inactive: 7.8%
22,O=C(NCC1(N2CCCCC2)CCCCC1)c1cccc([N+](=O)[O-])c1,inactive: 6.7%
23,CSc1ccc(C(=O)NCC2(N3CCOCC3)CCCCC2)cc1,inactive: 1%

row,SMILES,inhibition
1,CCOC(=O)N1CCC(Nc2cccc(C)c2)CC1,inactive: -6.9%
2,Cc1ccc(OCC(C)C)c(CN(CCCl)CCCl)c1,inactive: 19.7%
3,CCOc1ccc(C)cc1CN(CCCl)CCCl,inactive: 19.2%
4,O=C(NCC1(N2CCCCC2)CCCCC1)c1ccc(F)cc1,inactive: -14.3%
5,CCCCOc1ccc(C(=O)NCC2(N3CCOCC3)CCCCC2)cc1,inactive: -11.9%
6,COc1ccc(NC2CCN(CCc3ccccc3)CC2)c(OC)c1,inactive: -7.8%
7,CCOC(=O)N1CCC(Nc2ccc(F)cc2)CC1,inactive: -7%
8,O=C(NCC1(N2CCCCC2)CCCCC1)c1ccc(Cl)nc1,inactive: -1.5%
9,Cc1cc(C)cc(N(C(=O)c2ccccc2)C2CCN(C(=O)OC(C)(C)C)CC2)c1,inactive: 3.4%
10,O=C(NCC1(N2CCOCC2)CCCCC1)c1cc2ccccc2o1,inactive: 3.8%
11,O=C(OC1CN2CCC1CC2)C1c2ccccc2Oc2ccccc21 (configuration not stated),inactive: -5.2%
12,O=C(NCC1(N2CCCCC2)CCCCC1)c1ccc(Cl)s1,inactive: 9.6%
13,N#CC1(Nc2ccccc2)CCN(Cc2ccccc2)CC1,inactive: 1.7%
14,COc1ccc(Cl)cc1C(=O)NCC1(N2CCOCC2)CCCCC1,inactive: 1.9%
15,CCOC(=O)N1CCC(Nc2ccc(OC)cc2)CC1,inactive: -9.4%
16,COc1ccc(C(=O)NCC2(N3CCCCC3)CCCCC2)cc1,inactive: 4.1%
17,CC(C)(C)OC(=O)N1CCC(N(C(=O)c2ccccc2)c2ccc(F)cc2)CC1,inactive: 6.8%
18,COc1ccc(C(=O)NCC2(N3CCCCC3)CCCCC2)c(OC)c1OC,inactive: -1.3%
19,O=C(NCC1(N2CCCCC2)CCCCC1)c1ccc(=O)[nH]c1,inactive: 1.7%
20,O=C(NCC1(N2CCCCC2)CCCCC1)c1cccs1,inactive: 10.4%
21,CSc1ccccc1C(=O)NCC1(N2CCCCC2)CCCCC1,inactive: -0.5%

# — PubChem BioAssay AID485273 (Sanford-Burnham Center for Chemical Genomics, 2010)
